Data published in the Immune Epitope Database (IEDB).

Target: HLA-B*35:01
Assay: IEDB peptide-MHC binding, purified MHC/competitive/radioactivity; ≥ and ≤ were set here for values at or beyond the usual limits of such assays
Details: source organism: Homo sapiens

Row | IC50 [nM] | Sequence
1 | 1.7 | MPIEPGDIGY
2 | 666 | TPTVPSGSF
